Measured values from patent publication US20060251705A1, “Delivery of tigecycline in the presence of heparin” (Wyeth, priority 2005, published 2006).

Experiment: Simulated Y-site compatibility: pH by potentiometric meter
Format: physicochemical
Description: To “simulate” the Y-site, solutions of both tigecycline and heparin are mixed in a 1:1 ratio, and the compatibility of the common solution is evaluated for Appearance and Description (i.e. color, visible particulates or turbidity), subvisible particulates by light obscuration (i.e. HIAC), and pH over a four hour, room temperature period. This time period has become standard when performing these “simulated Y-site” studies, although the actual residence time for the two solutions in the administration set may not exceed eight minutes prior to entering the venous system. […]
The acceptance criteria of “no incompatibility indicating change” over the four hour evaluation period is being applied to the Appearance and Description assay as well as the HIAC subvisible particulate assay. […] In addition to the Appearance and Description and HIAC testing, the pH of the solutions are monitored “for information only.” Before mixing of the two test solutions together; Appearance and Description, HIAC subvisible particulate testing, and pH are determined on each as controls.
Testing of Controls • 1. Approximately 30 ml of the tigecycline and of the heparin solution are transferred to separate beakers and evaluated for Appearance and Description, subvisible particulates by HIAC and pH testing before the two test articles are mixed together. • 2. […]

pH (Table 1: Tigecycline 1 mg/mL in NS, Heparin 10 Units/ml in NS, each solution before mixing, 0 Hours): 7.78 | pH (Table 6: Tigecycline and Chlorpromazine solutions, each before mixing, 0 hours): 7.74
Structure (SMILES): CN(C)c1cc(NC(=O)CNC(C)(C)C)c(O)c2c1C[C@H]1C[C@H]3[C@H](N(C)C)C(O)=C(C(N)=O)C(=O)[C@@]3(O)C(O)=C1C2=O [Tigecycline, (4S,4aS,5aR,12aS)-9-[2-(tert-butylamino)acetamido]-4,7-bis(dimethylamino)-1,4,4a,5,5a,6,11,12a-octahydro-3,10,12,12a-tetrahydroxy-1,11-dioxo-2-naphthacenecarboxamide]
